Measurements reported in patent US20180371033A1, “THERAPEUTIC PEPTIDES AND METHODS OF USE THEREOF” (priority 2015, published 2018).

Legend:
[1] = format: in vivo, mice; settings: 14C whole body autoradiography; for Bladder / Spinal Cord: radioactivity signal per area in blood compared to tissue
Text: This example describes biodistribution of peptides.
ND indicates the peptide was not detected in that tissue.

[2] = for Blood (densitometric signal in the heart blood) / Brain (percentage of signal in that tissue compared to the signal detected in the heart blood): 14C-radiolabeled peptide, tail vein injection, kidneys ligated, target three hours circulation; for penetration of the blood brain barrier in comparison with the negative controls: reference level for high penetration: at least 10% diffuse signal in brain versus blood
Colo205 tumor = test: Peptide homing to tumors: whole organ near-infrared fluorescence of Cy5.5 labeled peptides, Colo205 tumor-bearing mice; format: in vivo; settings: 10 nmol Cy5.5 conjugate, 24 hours, single mouse; for Colon (near-infrared fluorescence signal) / Liver (near-infrared fluorescence signal) / Muscle (near-infrared fluorescence signal) / Spleen (near-infrared fluorescence signal) / Tumor (near-infrared fluorescence signal): average of 3 ROIs
Method: (§1) This example describes peptide homing to tumors. A peptide of the disclosure was labeled with a Cyanine 5.5 (Cy5.5) NHS ester near infrared fluorophore under aqueous conditions. Peptides of the disclosure were dissolved to 2 mg/mL in 50 mM sodium bicarbonate, pH 8.3. Cy5.5 NHS ester was dissolved at 10 mg/mL in anhydrous dimethylsulfoxide.
(§2) Approximately 0.1 molar equivalents of dye were added to the aqueous peptide solution at 10 minute intervals with thorough mixing. Analytical HPLC monitored at 214 and 678 nm was used to assess the completion of the reaction. Once complete, the mono-labeled product was purified using semi-preparative HPLC. The presence of a single Cy5.5-conjugated product was confirmed by mass spectrometry.
(§3) Each peptide was chemically conjugated to Cy5.5 at the N-terminus or to a reactive lysine via an active NHS ester on the dye. […] The resulting fluorescence was normalized based on the fluorescence of the solution. The tumors were subcutaneous xenografts of either Colo205 (a human colon cancer cell line), MDA-MB231 (a triple-negative human breast cancer cell line), or U87 (a human glioma cell line), which were implanted in the flank of the mouse.
(§4) At the end of the 24-hour dosing period, mice were euthanized by CO2 asphyxiation. Blood, tumor, muscle, kidney, liver, spleen, and colon tissue were harvested and placed in PBS on ice. The tissue was then scanned on the Odyssey CLx scanner (LI-COR) using the 700 nm channel, 21 micron resolution, and the Auto intensity settings. The signal intensity within a region of interest (ROI) was measured using the Image Studio software version 5.2 (LI-COR). All ROI's were the same size.
(§5) TABLE 5 lists whole organ near-infrared fluorescence quantification data in triplicate of Cy5.5 labeled peptides of SEQ ID NO: 25, SEQ ID NO: 32, SEQ ID NO: 17, SEQ ID NO: 6, SEQ ID NO: 37, SEQ ID NO: 35, or SEQ ID NO: 36 from Colo205 tumor-bearing Female Harlan athymic mice. Each row in TABLE 5 represents data from a single mouse (signal for each tissue is averaged over 3 ROIs per tissue).

MDA-MB-231 tumor = test: Peptide homing to tumors: whole organ fluorescence of Cy5.5 labeled peptides, MDA-MB-231 tumor-bearing mice; format: in vivo; settings: 10 nmol Cy5.5 conjugate, 24 hours, single mouse; for Colon (fluorescence signal) / Liver (fluorescence signal) / Muscle (fluorescence signal) / Spleen (fluorescence signal) / Tumor (fluorescence signal): average of 3 ROIs
Method: as §1, §2, §3, §4
as §5, with “TABLE 6” for “TABLE 5”, “organ” for “organ near-infrared”, “data” for “data in triplicate”, “from MDA-MB231” for “from Colo205”

U87 tumor = test: Peptide homing to tumors: whole organ fluorescence of Cy5.5 labeled peptides, U87 tumor-bearing mice; format: in vivo; settings: 10 nmol Cy5.5 conjugate, 24 hours, single mouse; for Colon (fluorescence signal) / Liver (fluorescence signal) / Muscle (fluorescence signal) / Spleen (fluorescence signal) / Tumor (fluorescence signal): average of 3 ROIs
Method: as §1, §2, §3, §4
as §5, with “TABLE 7” for “TABLE 5”, “organ” for “organ near-infrared”, “data” for “data in triplicate”, “of” for “of Cy5.5 labeled”, “36 conjugated to Cy5.5,” for “36”, “from U87” for “from Colo205”

[3] = tested on: Colo205, MDA-MB231 or U87 tumors; test: Peptide homing to tumors: summary over Colo205, MDA-MB231 and U87 xenografts; format: in vivo; settings: each tumor (Colo205, MDA-MB231, U87); Cy5.5 conjugates
Method: as §1, §3
as §4, with “size. […]” for “size.”

| Sequence | Adipose (percentage of signal compared to blood in the heart) [1] | Gall bladder (percentage of signal compared to blood in the heart) [1] | Liver (percentage of signal compared to heart blood) [1] | Lower GI (percentage of signal compared to blood in the heart) [1] | Lung (percentage of signal compared to heart blood) [1] | Muscle (percentage of signal compared to blood in the heart) [1] | Pancreas (percentage of signal compared to blood in the heart) [1] | Reproductive (tract; percentage of signal compared to heart blood) [1] | Salivary gland (percentage of signal compared to heart blood) [1] | Spleen (percentage of signal compared to blood in the heart) [1] | Upper GI (percentage of signal compared to blood in the heart) [1] | Bladder [1] | Spinal Cord [1] | Blood (densitometric signal in the heart blood) [2] | Brain (percentage of signal in that tissue compared to the signal detected in the heart blood) [2] | penetration of the blood brain barrier in comparison with the negative controls [2] | Tumor/Muscle (ratio of the signal in the tumor to the signal in the muscle) (Colo205 tumor) | Colon (near-infrared fluorescence signal) (Colo205 tumor) | Liver (near-infrared fluorescence signal) (Colo205 tumor) | Muscle (near-infrared fluorescence signal) (Colo205 tumor) | further results |
| --- | --- | --- | --- | --- | --- | --- | --- | --- | --- | --- | --- | --- | --- | --- | --- | --- | --- | --- | --- | --- | --- |
| GSECRYWLGTCSKTGDCCSHLSCSPKHGWCVWDWTFRK [SEQ ID NO: 3] | 6.20% | 86.20% | 109.00% | 17.04% | 181.48% | 25.47% | 37.76% | 60.79% | 47.89% | 43.16% | 69.16% | ND (ND indicates the peptide was not detected in that tissue) | Low | 2858983560 | 10.76% | highly penetrate the blood brain barrier | – | – | – | – | – |
| GSGCLEFWWKCNPNDDKCCRPKLKCSKLFKLCNFSFG [SEQ ID NO: 2] | 46.92% | 158.65% | 507.95% | 33.29% | 148.59% | 68.00% | 89.66% | 165.31% | 150.77% | 90.64% | 624.30% | Low | Low | 1327759044 | 11.27% | highly penetrate the blood brain barrier | – | – | – | – | – |
| GSICIPCFTTDHQIARRCDDCCGGRGRGKCYGPQCICR [SEQ ID NO: 17] | – | – | – | – | – | – | – | – | – | – | – | – | – | – | – | – | 2.796 and 3.02 and 5.044 | 4606666.7 and 5340000 and 4263333.3 | 18766667 and 18466667 and 16800000 | 1340000 and 1636666.7 and 1360000 | Spleen (near-infrared fluorescence signal) (Colo205 tumor): 4140000 and 4153333.3 and 3923333.3; Tumor (near-infrared fluorescence signal) (Colo205 tumor): 3746666.7 and 4943333.3 and 6860000; Tumor/Muscle (ratio of the signal in the tumor to the signal in the muscle) (MDA-MB-231 tumor): 3.587 and 7.787 and 9.026; Colon (fluorescence signal) (MDA-MB-231 tumor): 2346666.67 and 3130000 and 3636666.67; Liver (fluorescence signal) (MDA-MB-231 tumor): 13400000 and 12766666.7 and 15833333.3; Muscle (fluorescence signal) (MDA-MB-231 tumor): 923666.67 and 706333.33 and 688000; Spleen (fluorescence signal) (MDA-MB-231 tumor): 2283333.33 and 2500000 and 3006666.67; Tumor (fluorescence signal) (MDA-MB-231 tumor): 3313333.33 and 5500000 and 6210000; Tumor/Muscle (ratio of the signal in the tumor to the signal in the muscle) (U87 tumor): 10.67 and 7.632 and 7.642; Colon (fluorescence signal) (U87 tumor): 5626667 and 3913333 and 4803333; Liver (fluorescence signal) (U87 tumor): 24233333 and 16266667 and 16233333; Muscle (fluorescence signal) (U87 tumor): 1140000 and 1099333 and 1010667; Spleen (fluorescence signal) (U87 tumor): 4786667 and 2913333 and 3563333; Tumor (fluorescence signal) (U87 tumor): 12166667 and 8390000 and 7723333; detection in tumor [3]: detected in each tumor |
| GSICIPCFTTDHQIARRCDDCCGGRGRGRCYGPQCICR [SEQ ID NO: 36] | – | – | 128.72% | 19.48% | 104.62% | 27.65% | – | 160.48% | – | – | 353.31% | – | – | 13350663.35 | 9.64% | highly penetrate the blood brain barrier | 7.633 and 6.925 and 7.346 | 11933333 and 10913333 and 12666667 | 34466667 and 24366667 and 35333333 | 2506666.7 and 2233333.3 and 2600000 | Spleen (near-infrared fluorescence signal) (Colo205 tumor): 11300000 and 10500000 and 14733333; Tumor (near-infrared fluorescence signal) (Colo205 tumor): 19133333 and 15466667 and 19100000; Tumor/Muscle (ratio of the signal in the tumor to the signal in the muscle) (MDA-MB-231 tumor): 4.068 and 8.216; Colon (fluorescence signal) (MDA-MB-231 tumor): 1560000 and 688333.333; Liver (fluorescence signal) (MDA-MB-231 tumor): 5186666.67 and 1933333.33; Muscle (fluorescence signal) (MDA-MB-231 tumor): 517000 and 125666.67; Spleen (fluorescence signal) (MDA-MB-231 tumor): 1683333.33 and 643333.333; Tumor (fluorescence signal) (MDA-MB-231 tumor): 2103333.33 and 1032500; Tumor/Muscle (ratio of the signal in the tumor to the signal in the muscle) (U87 tumor): 8.368 and 8.338 and 7.202; Colon (fluorescence signal) (U87 tumor): 16033333 and 28433333 and 12400000; Liver (fluorescence signal) (U87 tumor): 45500000 and 32866667 and 39300000; Muscle (fluorescence signal) (U87 tumor): 3166667 and 3470000 and 2180000; Spleen (fluorescence signal) (U87 tumor): 11800000 and 6786667 and 7663333; Tumor (fluorescence signal) (U87 tumor): 26500000 and 28933333 and 15700000; detection in tumor [3]: detected in each tumor; average brain/blood ratio ([2]; mouse with ligated kidneys, 3 hours after administration of 100 nmol radiolabeled peptide): 9.64% |

Where “and” joins values, the source holds several entries; their conditions need not be identical. Equal entries are not always repeated.
